Source: PubChem (Broad Institute)
Hits are enriched below; roughly 1.5% of the tested compounds scored in any of these assays.
PglD inh – C. jejuni PglD acetyltransferase inhibitors, primary screen, biochemical, DTNB colorimetric, single point | purified PglD enzyme, DTNB colorimetric CoA detection | inhibition, % at 12.5 µM | 360,000 compounds, 0.098% hits; in the data active = inhibition above about 16%, passing the limit was not always enough
INS-1E GSIS act – GLuc luminescence reporter in INS-1E cells, primary screen for activators of glucose-dependent secretion of insulin; activation, % at 16.6 µM; 370,000 compounds, 0.61% hits; INS-1E GLuc reporter insulin secretion, 2-3 h;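 active = lowest replicate activation of at least 40%, so every replicate reaches that level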;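 also: 0% = median of neutral control wells and 100% = median of IBMX positive control wells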
Yeast UUG start – yeast start codon fidelity modulation; AID 602363; activity score, % at 18.7 µM; S. cerevisiae UUG-firefly luciferase reporter, luminescence/redox ratio; 0.13% of 350,000 active;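 active means replicate mean at a twofold rise or more, about +100% in these data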;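 further: firefly luciferase made from a UUG start codon reports start codon fidelity; reporter light over untreated wells divided by growth signal over untreated wells; some hits fall short of that in this replicate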
CASP6 VEID inh – human caspase-6 inhibitors, primary screen, biochemical, VEID-R110 fluorescence, single point, set 2 | P55212 | 350,000 compounds, 0.53% hits | AID 686996, 2013 | purified caspase-6, Z-VEID-R110 cleavage fluorescence | inhibition, % at 12.5 µM;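 active = mean inhibition across replicates at least about 35%, with every replicate also reaching that limit, limit read from the data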;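 also: 0% = median of neutral control wells and 100% = no fluorescence left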
RAD54 inh – inhibitors of human RAD54 branch migration, primary screen, biochemical, fluorescence, single point | DNA repair and recombination protein RAD54-like (Homo sapiens), Q92698 | RAD54 Holliday junction branch migration, FAM/BHQ fluorescence | inhibition, % at 10.4 µM | 360,000 compounds, 0.14% hits;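 active = mean normalized replicate activity at least 40 and at least half of replicates scoring 40 or more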;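 also: 0% = median of neutral control wells and 100% = median of positive control wells; inhibitors cause a drop in the FAM fluorescence signal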
RAD52 inh – RAD52 DNA annealing inhibitors, primary screen, biochemical, FRET, single point, set 2; 360,000 compounds, 0.46% hits; inhibition, % at 18.7 µM; DNA repair protein RAD52 homolog (Homo sapiens), P43351; recombinant RAD52 DNA annealing, FRET fluorescence;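 active = every replicate showing at least 50% inhibition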
Numbers without * were called inactive; nt = no result given.

Key to letters: A = PglD inh; B = INS-1E GSIS act; C = Yeast UUG start; D = CASP6 VEID inh; E = RAD54 inh; F = RAD52 inh
SMILES: CCOc1ccc(C2C(C(=O)c3ccco3)=C(O)C(=O)N2CCN2CCOCC2)cc1 (configuration not stated)
  A: -2.2; B: -1.4; C: -4.1; D: 3.9; E: -0.4; F: -15.1

SMILES: COc1ccc(Br)cc1C(=O)Nc1cc(C)cc(C)c1
  A: -2.8; B: 81.7*; C: -26.2; D: nt; E: -1.8; F: nt

SMILES: COc1ccc(Br)cc1C(=O)Nc1ccc(NC(=O)c2ccco2)cc1
  A: -5.6; B: 2.4; C: -16.4; D: nt; E: -3.3; F: nt

SMILES: CCOc1ccc(NC(=S)N2CCC(N(C)CCN3CCOCC3)CC2)cc1
  A: nt; B: -3.3; C: nt; D: nt; E: nt; F: nt

SMILES: O=C(c1ccccc1)c1ccc2ccccc2n1
  A: 0.5; B: 50.3*; C: -6.9; D: nt; E: 8.1; F: nt

SMILES: O=C(NC1CCCCC1)C(c1ccc(F)cc1)N(Cc1ccccc1)C(=O)CN1C(=O)c2ccccc2S1(=O)=O (configuration not stated)
  A: -0.4; B: 111.4*; C: -11.2; D: nt; E: -7.0; F: nt

SMILES: Cc1ccccc1Cc1c(C)nc2nc(SCC(=O)NCc3ccco3)nn2c1C
  A: 4.8; B: nt; C: -3.0; D: nt; E: 13.8; F: nt

SMILES: Cc1ccccc1Cc1c(C)nc2c(C(=O)NCc3ccco3)cnn2c1C
  A: 1.0; B: 45.6*; C: -19.4; D: 11.9; E: 3.4; F: -22.6

SMILES: COC(=O)c1cnn(-c2nc(-c3ccccc3)cs2)c1N
  A: -4.6; B: 45.0*; C: -7.7; D: -0.5; E: 0.2; F: -13.2

SMILES: CN(C)CC(=O)Nc1ccc2c(c1)[C@H]1C[C@H](CC(=O)NCc3ccc(-c4ccccc4)cc3)O[C@H](CO)[C@H]1O2
  A: -0.6; B: -12.0; C: nt; D: 0.6; E: -1.3; F: 61.5*

SMILES: CN(C)CC(=O)Nc1ccc2c(c1)[C@@H]1C[C@@H](CC(=O)NCc3ccc(-c4ccccc4)cc3)O[C@H](CO)[C@@H]1O2
  A: 3.1; B: 6.0; C: nt; D: -4.4; E: 4.3; F: 30.3

SMILES: COc1cccc(S(=O)(=O)Nc2ccc3c(c2)[C@H]2C[C@@H](CC(=O)O)O[C@H](CO)[C@H]2O3)c1
  A: 1.2; B: 13.5; C: 36.7*; D: 28.2; E: -15.3; F: 31.8

SMILES: CCCNC(=O)C[C@@H]1C[C@H]2c3cc(NC(=O)CC4CC4)ccc3O[C@H]2[C@H](CO)O1
  A: 1.2; B: -9.9; C: 138.8*; D: 1.3; E: -13.4; F: 34.0

SMILES: Cc1cccc(NS(=O)(=O)c2ccc(S(=O)(=O)N3CCCC3)cc2)c1
  A: -1.0; B: -1.0; C: -9.8; D: -0.1; E: -15.0; F: -15.9

SMILES: NC(=O)c1ccsc1NC(=O)COC(=O)c1ccc(Cl)cc1
  A: 4.6; B: -2.6; C: -12.2; D: 3.9; E: -7.0; F: -18.2

SMILES: O=C(CCn1ccc2cc(S(=O)(=O)N3CCCC3)ccc21)NCc1cccc(F)c1
  A: -4.9; B: 44.5*; C: 0.6; D: -0.8; E: 3.7; F: -0.6

SMILES: COc1ccc(-c2ccc([C@H]3[C@@H](CO)N4C(=O)CN(C(=O)NC(C)C)C[C@H]34)cc2)cc1
  A: nt; B: -2.3; C: nt; D: -0.3; E: nt; F: 1.5

SMILES: COc1ccc(CNC(=O)COC(=O)c2n[nH]c3ccccc23)cc1OC
  A: 2.7; B: nt; C: 2.7; D: nt; E: 3.6; F: nt

SMILES: Cc1nc2c(=O)n(C)c(=O)n(C)c2nc1Cl
  A: nt; B: 95.9*; C: nt; D: 1.5; E: nt; F: 8.4

SMILES: O=C(N/N=C/c1cc(Br)c(Br)o1)C(O)c1ccccc1 (configuration not stated)
  A: nt; B: 0.4; C: nt; D: 40.1*; E: nt; F: -19.3

SMILES: Cc1ccc(/C=N/NC(=O)C(O)c2ccccc2)o1 (configuration not stated)
  A: -2.7; B: 10.7; C: -3.3; D: 0.4; E: -0.4; F: -12.7

SMILES: COC(=O)CC1=Nc2ccccc2NC(=O)C1
  A: nt; B: -9.2; C: nt; D: nt; E: nt; F: nt

SMILES: CN(C)c1ccc2c(c1)[C@@H]1C[C@@H](CC(=O)NCc3ccccn3)O[C@@H](CO)[C@@H]1O2
  A: -1.5; B: -16.1; C: nt; D: 40.4*; E: -6.0; F: -63.8

SMILES: CN(C)CC(=O)Nc1ccc2c(c1)[C@H]1C[C@@H](CC(=O)NCCN3CCCCC3)O[C@@H](CO)[C@H]1O2
  A: -2.7; B: 18.5; C: -14.0; D: 1.0; E: 3.0; F: 11.3

SMILES: CN(C)c1ccc2c(c1)[C@H]1C[C@H](CC(=O)NCCN3CCCCC3)O[C@@H](CO)[C@H]1O2
  A: 2.8; B: 17.0; C: nt; D: -83.8; E: 52.6*; F: 23.0

Three entries from above, reformatted:
Each structure is followed by: PglD inh, INS-1E GSIS act, Yeast UUG start, CASP6 VEID inh, RAD54 inh, RAD52 inh
> COc1cccc(S(=O)(=O)Nc2ccc3c(c2)[C@H]2C[C@@H](CC(=O)O)O[C@H](CO)[C@H]2O3)c1
    1.2, 13.5, 36.7*, 28.2, -15.3, 31.8
> O=C(CCn1ccc2cc(S(=O)(=O)N3CCCC3)ccc21)NCc1cccc(F)c1
    -4.9, 44.5*, 0.6, -0.8, 3.7, -0.6
> CCCNC(=O)C[C@@H]1C[C@H]2c3cc(NC(=O)CC4CC4)ccc3O[C@H]2[C@H](CO)O1
    1.2, -9.9, 138.8*, 1.3, -13.4, 34.0

Next part
Key to letters: A = PglD inh; B = INS-1E GSIS act; C = Yeast UUG start; D = CASP6 VEID inh; E = RAD54 inh; F = RAD52 inh
SMILES: COc1ccc(CCNC(=O)c2c(C)noc2C)cc1
  A: -1.0; B: 5.3; C: -27.0; D: 49.5*; E: 19.2; F: -4.5

SMILES: Cc1noc(C)c1C(=O)NCCCc1ccccc1
  A: 1.6; B: nt; C: -10.3; D: nt; E: -13.0; F: nt

SMILES: O=C(CCn1c(=O)oc2ccccc21)N(Cc1ccccc1)c1ccccn1
  A: -0.2; B: 24.2; C: -4.2; D: nt; E: 8.9; F: nt

SMILES: O=C(COc1ccc(S(=O)(=O)Nc2ccccc2)cc1)NCc1ccncc1
  A: nt; B: 17.8; C: nt; D: -2.3; E: nt; F: -3.7

SMILES: O=C(N/N=C/c1ccc(F)cc1)c1cc(-c2ccco2)nc2ccccc12
  A: 3.1; B: nt; C: -13.2; D: nt; E: 1.9; F: nt

SMILES: Cc1nnc(NC(=O)c2cc(-c3ccco3)nc3ccccc23)s1
  A: 1.1; B: 15.4; C: -13.4; D: 53.1*; E: 1.7; F: -10.0

SMILES: CCOc1ccc(/C=N/NC(=O)c2cc(-c3ccco3)nc3ccccc23)cc1
  A: nt; B: 68.5*; C: nt; D: nt; E: nt; F: nt

SMILES: O=C(Nc1nc2ccccc2s1)c1cc(-c2ccco2)nc2ccccc12
  A: nt; B: 14.4; C: nt; D: 1.3; E: nt; F: -10.9

SMILES: CCOc1cc(NC(=O)c2ccco2)c(OCC)cc1NC(=O)c1cc(OC)c(OC)c(OC)c1
  A: -2.2; B: 44.8*; C: -18.2; D: nt; E: -3.4; F: nt

SMILES: COc1ccc(CC(=O)NCCC2=CCCCC2)cc1
  A: -3.2; B: -0.3; C: -9.7; D: -1.7; E: -5.8; F: -6.7

SMILES: CCOC(=O)Cc1csc(NC(=O)c2ccc(OC)c(OC)c2)n1
  A: 5.7; B: 55.1*; C: 2.0; D: nt; E: 6.1; F: nt

SMILES: CCOC(=O)Cc1csc(NC(=O)c2cccc(OC)c2)n1
  A: -0.3; B: nt; C: -9.6; D: nt; E: 3.3; F: nt

SMILES: O=C(Cc1csc(NC(=O)c2ccccc2)n1)NO
  A: -3.7; B: 57.2*; C: -14.0; D: 0.2; E: -4.7; F: -4.6

SMILES: CCOC(=O)Cc1csc(NC(=O)c2cccc([N+](=O)[O-])c2)n1
  A: -3.0; B: 178.6*; C: -4.4; D: -2.9; E: 0.5; F: -8.7

SMILES: CCOC(=O)/C(C#N)=C/Nc1ccccc1NS(=O)(=O)c1cccc(C(C)=O)c1
  A: 6.1; B: 0.0; C: 9.5; D: 37.5*; E: -8.7; F: -12.9

SMILES: O=[N+]([O-])c1ccc(N=Nc2ccc(O)cc2O)cc1
  A: -1.4; B: -53.0; C: -3.4; D: nt; E: -8.1; F: nt

SMILES: O=S(=O)(O)c1cc(Cl)cc(N=Nc2ccc(O)cc2O)c1O
  A: nt; B: nt; C: nt; D: 76.8*; E: nt; F: -155.2

SMILES: COc1ccccc1NC(=O)/C(=C/c1cccs1)NC(=O)c1ccco1
  A: 4.2; B: 1.1; C: -14.9; D: 1.1; E: 2.6; F: -13.2

SMILES: C/C(=N/NC(=O)c1ccc(Br)o1)c1cccc(NC(=O)c2ccc(C)o2)c1
  A: -1.9; B: -4.0; C: 6.7; D: nt; E: 6.5; F: nt

SMILES: C/C(=N/NC(=O)c1ccc(Br)o1)c1ccncc1
  A: 3.7; B: 66.7*; C: -13.9; D: nt; E: -3.8; F: nt

SMILES: C[C@@H]1CN([C@H](C)CO)C(=O)c2cc(Br)cnc2O[C@@H]1CN(C)S(=O)(=O)c1ccc(F)cc1
  A: 0.5; B: 2.9; C: 29.2; D: -0.8; E: -2.8; F: 20.5

SMILES: O=C(C[C@H]1C[C@@H]2c3cc(NC(=O)NC4CCCCC4)ccc3O[C@@H]2[C@H](CO)O1)NCc1ccncc1
  A: 5.4; B: -7.8; C: 11.8; D: 1.5; E: 5.2; F: 9.6

SMILES: CCCCC(C(=O)NCCC(C)C)N(CCCN1CCOCC1)C(=O)c1snc(C(N)=O)c1N (configuration not stated)
  A: 8.7; B: 53.8*; C: 18.0; D: nt; E: 5.5; F: nt
